Assay results reported in patent publication US20240218074A1 (AKESO BIOPHARMA, published 2024).
Residue numbers refer to the chain shown, from its start.

T1: human NT5E-Biotin (NT5E is GenbankID: NP_002517.1, position: 1-552) (human, UniProt P21589 27-552, biotin label (site not stated))
T1 construct: range 1-552; Recombinant soluble antigen made by Akeso (batch 20160505), biotinylated and captured on streptavidin; also called HNT5E-Biotin; human NT5E (1-552)-Biotin
T1 sequence (looked up): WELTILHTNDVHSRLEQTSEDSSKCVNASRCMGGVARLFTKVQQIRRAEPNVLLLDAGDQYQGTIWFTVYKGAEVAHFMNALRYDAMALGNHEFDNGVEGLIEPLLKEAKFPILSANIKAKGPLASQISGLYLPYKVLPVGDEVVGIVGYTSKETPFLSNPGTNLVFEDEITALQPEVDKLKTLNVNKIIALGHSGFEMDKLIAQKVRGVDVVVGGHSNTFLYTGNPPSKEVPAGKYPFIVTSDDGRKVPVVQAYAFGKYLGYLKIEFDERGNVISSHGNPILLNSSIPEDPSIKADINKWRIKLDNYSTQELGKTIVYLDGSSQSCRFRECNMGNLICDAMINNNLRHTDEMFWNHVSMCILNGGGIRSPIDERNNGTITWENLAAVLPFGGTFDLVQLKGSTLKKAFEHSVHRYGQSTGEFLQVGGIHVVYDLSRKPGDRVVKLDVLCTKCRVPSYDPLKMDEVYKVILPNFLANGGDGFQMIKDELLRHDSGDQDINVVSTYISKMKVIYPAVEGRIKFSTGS

B1: humanized anti-CD73 antibody 19F3H2L2 (antibody, IgG1, V domains shown)
VH: QVQLVQSGAEVVKPGASVKVSCKASGYSFTGYTMNWVRQAPGQNLEWIGLINPYNAGTSYNQKFQGKVTLTVDKSTSTAYMELSSLRSEDTAVYYCARSEYRYGGDYFDYWGQGTTLTVSS
VL: DIVMTQSPSSLAVSVGERVTISCKSSQSLLNSSNQKNYLAWYQQKPGQAPKLLIYFASTRESGVPDRFSGSGSGTDFTLTISSVQAEDVADYYCQQHYDTPYTFGGGTKLEIKR
B2: humanized anti-CD73 antibody 19F3H1L1 (antibody, IgG1, V domains shown)
VH: B1 VH with V5Q, V18M, V20M, R38K, P41H, V68A
VL: not shown

How the values were obtained:
[1] = molecular target: T1, human NT5E-Biotin (NT5E is GenbankID: …); assay: ELISA on streptavidin-captured human NT5E-Biotin; HRP goat anti-human IgG
[2] = molecular target: T1, human NT5E-Biotin (NT5E is GenbankID: …); assay: ELISA on streptavidin-captured human NT5E-Biotin; antibody 0.333 ug/mL; replicate 1
[3] = molecular target: T1, human NT5E-Biotin (NT5E is GenbankID: …); assay: ELISA on streptavidin-captured human NT5E-Biotin; antibody 0.333 ug/mL; replicate 2
[4] = molecular target: T1, human NT5E-Biotin (NT5E is GenbankID: …); assay: ELISA on streptavidin-captured human NT5E-Biotin; antibody 0 (blank well); replicate 1
[5] = molecular target: T1, human NT5E-Biotin (NT5E is GenbankID: …); assay: ELISA on streptavidin-captured human NT5E-Biotin; antibody 0 (blank well); replicate 2
[6] = molecular target: T1, human NT5E-Biotin (NT5E is GenbankID: …); assay: ELISA on streptavidin-captured human NT5E-Biotin; antibody 1:3 dilution of 0.333 ug/mL; replicate 1
[7] = molecular target: T1, human NT5E-Biotin (NT5E is GenbankID: …); assay: ELISA on streptavidin-captured human NT5E-Biotin; antibody 1:3 dilution of 0.333 ug/mL; replicate 2
[8] = molecular target: T1, human NT5E-Biotin (NT5E is GenbankID: …); assay: ELISA on streptavidin-captured human NT5E-Biotin; antibody 1:9 dilution of 0.333 ug/mL; replicate 1
[9] = molecular target: T1, human NT5E-Biotin (NT5E is GenbankID: …); assay: ELISA on streptavidin-captured human NT5E-Biotin; antibody 1:27 dilution of 0.333 ug/mL; replicate 1
[10] = molecular target: T1, human NT5E-Biotin (NT5E is GenbankID: …); assay: ELISA on streptavidin-captured human NT5E-Biotin; antibody 1:27 dilution of 0.333 ug/mL; replicate 2
[11] = molecular target: T1, human NT5E-Biotin (NT5E is GenbankID: …); assay: ELISA on streptavidin-captured human NT5E-Biotin; antibody 1:81 dilution of 0.333 ug/mL; replicate 1
[12] = molecular target: T1, human NT5E-Biotin (NT5E is GenbankID: …); assay: ELISA on streptavidin-captured human NT5E-Biotin; antibody 1:81 dilution of 0.333 ug/mL; replicate 2
[13] = molecular target: T1, human NT5E-Biotin (NT5E is GenbankID: …); assay: ELISA on streptavidin-captured human NT5E-Biotin; antibody 1:243 dilution of 0.333 ug/mL; replicate 1
[14] = molecular target: T1, human NT5E-Biotin (NT5E is GenbankID: …); assay: ELISA on streptavidin-captured human NT5E-Biotin; antibody 1:243 dilution of 0.333 ug/mL; replicate 2
[15] = molecular target: T1, human NT5E-Biotin (NT5E is GenbankID: …); assay: ELISA on streptavidin-captured human NT5E-Biotin; antibody 1:729 dilution of 0.333 ug/mL; replicate 1
[16] = molecular target: T1, human NT5E-Biotin (NT5E is GenbankID: …); assay: ELISA on streptavidin-captured human NT5E-Biotin; antibody 1:729 dilution of 0.333 ug/mL; replicate 2

Row | Binder | EC50 [1] [nM] | OD (450 nm) [2] [OD450] | OD (450 nm) [3] [OD450] | OD (450 nm) [4] [OD450] | OD (450 nm) [5] [OD450] | OD (450 nm) [6] [OD450] | OD (450 nm) [7] [OD450] | OD (450 nm) [8] [OD450] | OD (450 nm) [9] [OD450] | OD (450 nm) [10] [OD450] | OD (450 nm) [11] [OD450] | OD (450 nm) [12] [OD450] | OD (450 nm) [13] [OD450] | OD (450 nm) [14] [OD450] | OD (450 nm) [15] [OD450] | OD (450 nm) [16] [OD450]
1 | B1 | 0.064 | 2.6 | 2.69 | 0.119 | 0.123 | 2.58 | 2.62 | 2.16 | 1.58 | 1.68 | 0.87 | 0.933 | 0.434 | 0.454 | 0.239 | 0.247
2 | B2 | 0.049 | 2.65 | – | 0.125 | 0.123 | 2.6 | 2.7 | 2.41 | 1.82 | 1.82 | 1.04 | 1.03 | 0.525 | 0.516 | 0.26 | 0.273
